The text below walks through data of patent publication US20150218251A1 (NATIONAL CHENG KUNG UNIVERSITY, published 2015).

One assay concerns the target integrin αvβ3 (UniProt P06756 31-1048; P05106 27-788). The assay can be described thus: cell-based or functional assay.
The next assay addresses integrin αIIbβ3 (UniProt P08514 32-1039; P05106 27-788). Kind of assay: cell-based or functional assay.

B1: FNIII 9-10 variant, L1408P (SEQ ID NO: 62, VRARGDNPDSSK) (designed binder)
chain: HHHHHHGLDSPTGIDFSDITANSFTVHWIAPRATITGYRIRHHPEHFSGRPREDRVPHSRNSITLTNLTPGTEYVVSIVALNGREESPPLIGQQSTVSDVPRDLEVVAATPTSLLISWDAPAVTVRYYRITYGETGGNSPVQEFTVPGSKSTATISGLKPGVDYTITVYAVRARGDNPDSSKPISINYRT
Take B1: in the assay with integrin αvβ3, the “IC50, cell adhesion assay” value is roughly 3.71 µM. In addition, in the assay with integrin αIIbβ3, the “IC50, cell adhesion assay” value is greater than 1.25 µM and the “IC50, inhibition of ADP-induced platelet aggregation” value was greater than 21.5 µM.
